Drawing on ChEMBL document CHEMBL1687713, “Antagonistic effect of rifampin on the efficacy of high-dose levofloxacin in staphylococcal experimental foreign-body infection” (Antimicrob Agents Chemother, 2008), this text covers Ratio for one compound.

This experiment is described as follows: Ratio of AUC in Wistar rat tissue cage fluid to MIC for Escherichia coli ATCC 35218 at 100 mg/kg/day, ip measured on day 4. Format: functional. Conditions: route intraperitoneal.

As to `C[C@H]1COc2c(N3CCN(C)CC3)c(F)cc3c(=O)c(C(=O)O)cn1c23.C[C@H]1COc2c(N3CCN(C)CC3)c(F)cc3c(=O)c(C(=O)O)cn1c23.O` [LEVOFLOXACIN], the Ratio came out at 234.
